According to patent publication US12276657B2, “Detection of PAR in the CSF of patients with Parkinson's disease” (The Johns Hopkins University, priority 2017, dated 2025):

Tested on: α-syn PFF injected mice
Details: ABT-888 diet 125 mg/kg
[1] = 6 months after intrastriatal α-syn PFF
[2] = 180 days after α-syn PFF injection

C[C@]1(c2nc3c(C(N)=O)cccc3[nH]2)CCCN1 [ABT-888, veliparib]
TH and DAT levels, western blot [1]: the reduction in TH and DAT levels is prevented
striatal DA and its metabolites, HPLC [1]: but not PARP-1 knockout mice or ABT-888 treated mice
forelimb plus hindlimb and forelimb grip strength [2]: but not in PARP-1 knockout or ABT-888 treated WT mice
pole test [2]: no deficits
loss of DA neurons versus control diet (WT mice, 6 months after intrastriatal α-syn PFF): significantly less loss of DA neurons
α-syn pathology (western blotting, p-α-syn immunostaining) (after intrastriatal α-syn PFF): markedly reduced
PARP activation / PAR levels in brain (single intrastriatal α-syn PFF 5 μg): reduces the formation of α-syn PFF induced increase in PAR levels
